One test has as its target MAT2A (Homo sapiens, UniProt P31153). The test is described as follows: MAT2A enzyme inhibition assay (phosphate detection with BIOMOL Green, OD620). The note with it: read-out: MAT2A IC50; 150 minutes reaction, substrates L-methionine and ATP. The text has this:
Experimental Principle: MAT2A catalyzes the reaction of L-methionine and ATP to produce S-adenosyl methionine (SAM) and phosphate. The phosphate can be detected by formation of malachite green phosphomolybdate with sulfuric acid and ammonium molybdate.
Experimental Materials: MAT2A enzyme was purchased from BPS (Cat. No. 71401-1); tris(hydroxymethyl)aminomethane (Tris) was purchased from Life Science (Cat. No. 0497); bovine serum albumin (BSA) was purchased from Sigma (Cat. No. V900933); L-methionine was purchased from Adams (Cat. No. 1100469); ATP was purchased from Sigma (Cat. No. A7699); magnesium chloride was purchased from Sigma (Cat. No. M8266); potassium chloride was purchased from Sigma (Cat. No. 7447-40-7); polyoxyethylene lauryl ether (Brij35) was purchased from Sigma (Cat. No. B4184); ethylenediaminetetraacetic acid (EDTA) was purchased from Sigma (Cat. No. M1644); dimethyl sulfoxide (DMSO) was purchased from Sigma (Cat. No. D2650); BIOMOL® Green was purchased from Enzo (Cat. No. BML-AK111-0250); 384-well plates were purchased from Corning (Cat. No. 3765); the centrifuge was purchased from Eppendorf (Model 5430); the microplate reader was purchased from BioTek (Model Synergy 2); the pipettor was purchased from Labcyte (Model Echo 550).
Experimental Method: A buffer was prepared with the following components: 50 mM Tris, pH 7.5 / 50 mM potassium chloride / 10 mM magnesium chloride / 0.01% Brij-35 / 1 mM EDTA / 0.1% BSA. The final concentration of test compounds started at 10 µM, with 3 -fold serial dilution over 10 concentrations, tested in duplicate wells. In a 384-well plate, gradient dilutions were prepared as 10 solutions at 100× final concentration. Then 250 nL was transferred using an Echo 550 to a 384-well reaction plate for subsequent use. Negative control wells and positive control wells received 250 nL of 100% DMSO each. A 1.67× final concentration MAT2A enzyme solution was prepared in buffer. […] OD620 was read and the data analyzed.

Chains of the proteins cited; added tags and fusions are not shown.
UniProt P31153, whole entry: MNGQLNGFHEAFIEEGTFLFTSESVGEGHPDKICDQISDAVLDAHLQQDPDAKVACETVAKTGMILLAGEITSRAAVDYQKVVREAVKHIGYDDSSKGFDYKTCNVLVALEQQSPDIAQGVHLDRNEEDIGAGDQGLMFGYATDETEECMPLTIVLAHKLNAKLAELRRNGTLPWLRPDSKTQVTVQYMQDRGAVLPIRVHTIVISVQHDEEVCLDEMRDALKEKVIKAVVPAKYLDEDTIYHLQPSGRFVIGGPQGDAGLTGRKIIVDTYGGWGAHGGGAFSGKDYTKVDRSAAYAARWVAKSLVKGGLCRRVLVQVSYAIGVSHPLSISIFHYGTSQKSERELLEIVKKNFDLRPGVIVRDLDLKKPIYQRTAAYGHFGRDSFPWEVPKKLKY

In a further test the test system is HCT116 MTAP^-/- cells. As to the kind of experiment: Proliferation inhibition, CellTiter-Glo, HCT116 MTAP^-/- cells. The settings on record: read-out: IC50 (nM) HCT116 MTAP^-/-, 120 hours. The text has this: (§1) These two cell lines are used to determine whether compounds display MTA-synergistic inhibitory activity.
(§2) Experimental Materials: HCT116 MTAP^-/- and HCT116 MTAP^WT cells were purchased from Horizon; CellTiter-Glo reagent was purchased from Promega (Cat. No. G7571); RPMI-1640 was purchased from ATCC (Cat. No. 30-2001); fetal bovine serum (FBS) was purchased from EXCELL (Cat. No. FND500); penicillin-streptomycin was purchased from Gibco (Cat. No. 15140-122); 0.25% trypsin-ethylenediaminetetraacetic acid digestion solution (Trypsin-EDTA) was purchased from Gibco (Cat. No. 25200-072); dimethyl sulfoxide (DMSO) was purchased from Sigma (Cat. No. D2650); 96-well plates were purchased from Corning (Cat. No. 3610); the incubator was purchased from NuAire (Model NU-5700E); the inverted microscope was purchased from Nikon (Model TS-100); the automated cell counter was purchased from Life Technologies (Model Countess II); the microplate reader was purchased from PerkinElmer (Model Envision); the data analysis software was GraphPad Prism 5.0.
Experimental Method: HCT116 MTAP^-/- or HCT116 MTAP^WT cells in logarithmic growth phase were resuspended in growth medium (RPMI-1640 + 10% FBS) and diluted to the target density (5000/mL). The cell suspension was seeded into 96-well plates at 100 µL per well, and the plates were incubated overnight at 37 °C in a 5% CO2 incubator. Medium alone served as the background control group. The cells were starved with 80 µL of serum-free medium for 4 hours. The test compounds were dissolved in DMSO to prepare a 10 mmol/L stock solution. The stock solution was first diluted to 2 mmol/L (200×) with DMSO, then serially diluted 3-fold over a total of 10 concentrations. From each concentration, 3 µL of the above solution was diluted with 297 µL of growth medium (2×). Then 80 µL/well was added to the 96-well plates containing seeded cells. The cells with added test compounds were incubated at 37 °C in a 5% CO2 incubator for 120 hours. The 96-well plates were equilibrated at room temperature, and 40 µL of CellTiter-Glo reagent was added to each well, mixed on a vortex for 2 minutes, and incubated at room temperature for 60 minutes. The luminescence was read on an EnVision microplate reader, and the IC50 values of the compounds were calculated using GraphPad Prism 5.0 software.

The next test concerns Mia Paca2. As to the kind of experiment: Proliferation inhibition of tumor cells, 10 days, Mia Paca2. The settings on record: Mia Paca2, MTAP Deletion, PDAC, 3D culture, day 10. The text has this:
(§3) Experimental Principle: The human tumor cell lines HCC15, NCI-H2052, LN18, NCI-H838, LU99, DOHH2, HT-1080, MKN45, THP-1, MCF7, MIA PaCa-2, U87-MG, and UMUC3 are all MTAP gene-deleted cell lines. NCI-H1944, ASPC-1, U251, and HT-1376 are MTAP gene wild-type cell lines. […]
(§4) Experimental Method: Each of the above cell lines in logarithmic growth phase was resuspended in growth medium and diluted to an appropriate density (approximately 6250/mL). […] The 96-well plates were equilibrated at room temperature, and 100 µL of detection reagent (Luminescent Cell Viability Detection) or 25 µL of CellTiter-Glo reagent was added to each well; after incubation at room temperature for 10 minutes, the luminescence was read on an EnVision microplate reader, and the IC50 values of the compounds were calculated using GraphPad Prism 8.0 software. […]

For the next test, the system named is HCT116 MTAP^WT cells. As to the kind of experiment: Proliferation inhibition, CellTiter-Glo, HCT116 MTAP^WT cells. The settings on record: read-out: IC50 (nM) HCT116 MTAP^WT, 120 hours.
Description: as §1, §2
Experimental Method: HCT116 MTAP^-/- or HCT116 MTAP^WT cells in logarithmic growth phase were resuspended in growth medium (RPMI-1640 + 10% FBS) and diluted to the target density (5000/mL). […] The luminescence was read on an EnVision microplate reader, and the IC50 values of the compounds were calculated using GraphPad Prism 5.0 software.
Background: ATP-based viability assays read luminescence as a measure of living cells.

The next test has as its system DOHH2. The test is described as follows: Proliferation inhibition of tumor cells, 10 days, DOHH2. The note with it: DOHH2, MTAP Deletion, BCL, 3D culture, day 10.
Description: as §3, §4

A further test concerns LN18. As to the kind of experiment: Proliferation inhibition of tumor cells, 10 days, LN18. The note with it: LN18, MTAP Deletion, GBM, 3D culture, day 10.
Description: as §3, §4

Another test deals with THP-1. As to the kind of experiment: Proliferation inhibition of tumor cells, 10 days, THP-1. The settings on record: THP-1, MTAP Deletion, LAML, 3D culture, day 10.
Description: as §3, §4

The test system of another test is NCI-H838. As to the kind of experiment: Proliferation inhibition of tumor cells, 10 days, NCI-H838. The settings on record: NCI-H838, MTAP Deletion, LUAD, 2D culture, day 10.
Description: as §3, §4

The subject of another test is MKN45. The test is described as follows: Proliferation inhibition of tumor cells, 10 days, MKN45. The settings on record: MKN45, MTAP Deletion, STAD, 3D culture, day 10.
Description: as §3, §4

Another test concerns HCC15. As to the kind of experiment: Proliferation inhibition of tumor cells, 10 days, HCC15. The note with it: HCC15, MTAP Deletion, NSCLC, 3D culture, day 10.
Description: as §3, §4

The next test relates to HT-1080. As to the kind of experiment: Proliferation inhibition of tumor cells, 10 days, HT-1080. The settings on record: HT-1080, MTAP Deletion, SARC, 3D culture, day 10.
Description: as §3, §4

The subject of a further test is NCI-H2052. The test is described as follows: Proliferation inhibition of tumor cells, 10 days, NCI-H2052. The settings on record: NCI-H2052, MTAP Deletion, MESO, 3D culture, day 10.
Description: as §3, §4

The test system of the next test is U251. The test is described as follows: Proliferation inhibition of tumor cells, 10 days, U251. The note with it: U251, MTAP WT, GBM, 3D culture, day 10.
Description: as §3, §4

The test system of another test is NCI-H1944. The test is described as follows: Proliferation inhibition of tumor cells, 10 days, NCI-H1944. The note with it: NCI-H1944, MTAP WT, LUAD, 3D culture, day 10.
Description: as §3, §4

The subject of the next test is MCF7. As to the kind of experiment: Proliferation inhibition of tumor cells, 10 days, MCF7. The settings on record: MCF7, MTAP Deletion, BRCA, 3D culture, day 10.
Description: as §3, §4

The subject of another test is LU99. As to the kind of experiment: Proliferation inhibition of tumor cells, 10 days, LU99. The note with it: LU99, MTAP Deletion, LCLC, 3D culture, day 10.
Description: as §3, §4

In a further test the test system is ASPC-1. As to the kind of experiment: Proliferation inhibition of tumor cells, 10 days, ASPC-1. The note with it: ASPC-1, MTAP WT, PDAC, 3D culture, day 10.
Description: as §3, §4

For a further test, the system named is U87MG. As to the kind of experiment: Proliferation inhibition of tumor cells, 10 days, U87MG. The note with it: MTAP Deletion, GBM, 3D culture, day 10.
Description: as §3, §4

The structures appear in SMILES notation.

The record followed here is patent EP4821924A1, “FUSED RING MAT2A INHIBITOR, AND PHARMACEUTICAL COMPOSITION CONTAINING SAME AND USE THEREOF” (dated 2026).

For `Cc1ncccc1-c1nnc(N)c2ccc(C(F)(F)F)c(F)c12`, the figures for the IC50 on MAT2A and with HCT116 MTAP^-/- cells were less than 0.2 µM and less than 100 nM, respectively.

Regarding `[2H]C([2H])([2H])Nc1nnc(-c2cccnc2C)c2cc(C(F)(F)F)ccc12`, in the test on HCT116 MTAP^-/- cells, the IC50 is 100 to 1000 nM.

As to `Cc1nccc(F)c1-c1nnc(N)c2ccc(C(F)(F)F)cc12`, the IC50 in the test on HCT116 MTAP^-/- cells fell in the range of 100 to 1000 nM.

With `Cc1ncccc1-c1nnc(N)c2ccc(C(F)(F)F)cc12`, the IC50 is 1 to 10 µM in the test on Mia Paca2; more than 10000 nM in the test on HCT116 MTAP^WT cells; 0.1 to 1 µM in the test on DOHH2; 0.1 to 1 µM with LN18; 0.1 to 1 µM with THP-1; less than 0.1 µM with NCI-H838. Further, the IC50 is 0.1 to 1 µM in the test with MKN45; 0.1 to 1 µM with HCC15; 0.1 to 1 µM in the test on HT-1080; less than 0.2 µM at MAT2A; less than 0.1 µM in the test on NCI-H2052; more than 10 µM with U251. Moreover, the IC50 in the test on NCI-H1944 is 1 to 10 µM; in the test on MCF7, 0.1 to 1 µM; in the test with HCT116 MTAP^-/- cells it was less than 100 nM; with LU99 it was 0.1 to 1 µM; in the test on ASPC-1, more than 10 µM; with U87MG it was 1 to 10 µM.

Turning to `CNc1nnc(-c2cccnc2C)c2cc(C(F)(F)F)ccc12`, the IC50 at MAT2A was less than 0.2 µM; with HCT116 MTAP^-/- cells, 100 to 1000 nM.

In the case of `Cc1ncccc1-c1nnc(N)c2ccc(C3CC3)c(F)c12`, the IC50 with HCT116 MTAP^-/- cells was in the range of 100 to 1000 nM.
